Values of other authors, collected in PMC9303331, “Novel agonist and antagonist radioligands for the GLP‐2 receptor. Useful tools for studies of basic GLP‐2 receptor pharmacology” (British Journal of Pharmacology, 2022).

Test system: dipeptidyl peptidase‐4 (DPP‐4)
Conditions: ref Jeppesen et al., 2001; cited from earlier work

Substance: teduglutide
- resistance to DPP‐4: DPP‐4 resistant
